Test results from PubChem BioAssay AID623 (Vanderbilt High Throughput Screening Facility, 2007).
Only a part is listed here, and it is no random draw. Some results for these compounds are left out of this collection, so the calls shown say nothing about other tests. The source made the active and inactive calls.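 The calls were made as follows: active = NADPH fluorescence slope more negative than the mean of all samples by about 3 SD, 99.7% confidence; inactive = the rest.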

Protein sequences, listed by entry. Tags and fused reporters are not part of them.
UniProt P62483, whole entry: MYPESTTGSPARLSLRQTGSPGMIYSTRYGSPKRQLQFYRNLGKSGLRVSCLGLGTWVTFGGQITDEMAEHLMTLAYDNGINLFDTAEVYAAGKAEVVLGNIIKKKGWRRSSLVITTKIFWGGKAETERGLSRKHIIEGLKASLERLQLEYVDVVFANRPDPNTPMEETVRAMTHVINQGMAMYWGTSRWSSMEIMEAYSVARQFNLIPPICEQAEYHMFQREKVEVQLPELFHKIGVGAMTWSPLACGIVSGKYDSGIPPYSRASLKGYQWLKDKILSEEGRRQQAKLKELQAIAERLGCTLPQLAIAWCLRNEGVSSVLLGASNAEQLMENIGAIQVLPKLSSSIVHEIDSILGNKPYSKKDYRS

Target: Voltage-gated potassium channel subunit beta-2 (Rattus norvegicus) (UniProt P62483)
Test: KvBeta positive modulators, primary screen, biochemical, NADPH fluorescence (AID 623);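 also: fluorescence intensity change per second fitted from 20 to 320 s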
Settings: Recombinant KvBeta, NADPH fluorescence decrease slope, 10 min; at 10 µM; active compounds read low

Row | SMILES | NADPH fluorescence slope
1 | O=C(OC1CN2CCC1CC2)C(CO)(c1ccccc1)c1ccccc1 (stereo unspecified) | inactive: -7e-05
